What all share (test): SPR (Biacore 8K), antibody amine-coupled on CM5, CADM1 as analyte, multi-cycle kinetics
In test [1] the target is T1, CADM1FcΔ10 (Δ10 Fc variant formed by fusing human Fc with a CADM1 extracellular domain) (human).
T1 construct: The whole entry is the fusion (CADM1 extracellular domain, AAA linker, human IgG1 hinge-Fc); Dimerized via Fc; also called Fc10; dimerized FcΔ10
On the procedure: (§1) The antibody was diluted with a phosphate buffered saline (PBS) at a concentration of 1 mg/ml, and was then immobilized as a ligand on a sensor chip CM5 by an amine coupling method.

The target in test [2] is T2, CADM1ecΔ10 (Δ10 variant of a CADM1 extracellular domain) (human, UniProt Q9BY67-3 45-400).
T2 construct: Monomer; The entry includes a C-terminal HHHHHH tag; also called ec10
T2 sequence: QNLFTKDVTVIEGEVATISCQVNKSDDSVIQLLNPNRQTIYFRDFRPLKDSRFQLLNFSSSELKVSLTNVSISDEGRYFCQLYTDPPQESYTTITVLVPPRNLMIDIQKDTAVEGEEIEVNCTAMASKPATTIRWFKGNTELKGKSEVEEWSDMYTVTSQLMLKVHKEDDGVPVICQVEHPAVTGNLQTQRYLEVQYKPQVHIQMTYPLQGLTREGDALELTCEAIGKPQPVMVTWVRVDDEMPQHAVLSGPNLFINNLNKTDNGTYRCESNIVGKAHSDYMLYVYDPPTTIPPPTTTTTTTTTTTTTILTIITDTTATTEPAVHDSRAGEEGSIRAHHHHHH
On the procedure: as §1

Test [3] deals with T3, CADM1ecΔ9-10 (Δ9-10 variant of a CADM1 extracellular domain) (human, UniProt Q9BY67 45-371).
T3 construct: Monomer; The entry includes C-terminal myc and His tags; also called ec9-10
T3 sequence: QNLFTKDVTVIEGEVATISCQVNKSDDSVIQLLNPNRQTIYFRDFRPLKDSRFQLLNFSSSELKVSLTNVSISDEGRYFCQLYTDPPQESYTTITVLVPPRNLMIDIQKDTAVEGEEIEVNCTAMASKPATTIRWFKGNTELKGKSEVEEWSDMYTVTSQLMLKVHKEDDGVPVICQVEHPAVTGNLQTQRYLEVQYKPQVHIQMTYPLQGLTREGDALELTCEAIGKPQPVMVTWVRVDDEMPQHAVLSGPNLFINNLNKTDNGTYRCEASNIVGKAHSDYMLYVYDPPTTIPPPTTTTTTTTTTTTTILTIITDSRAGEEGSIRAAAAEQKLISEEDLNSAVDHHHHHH
On the procedure:
as §1

A word on the koff: it is the rate constant with which the complex falls apart. Lower therefore signals a long-lived complex. A word on the Kd: it is the constant that tells how readily two partners part at equilibrium.

B1: YTH-W-2C2 chimeric antibody (antibody, V domains shown)
VH: QVQLQQSGAELAKPGSSVKISCKASGYTFSNYDISWIKQTTGQGLDYIGYIHTGSGGTYYNEKFKGKATLTVDKSSSTAFMQLSSLTPEDTAVYYCARTPYVYYGSGYFDFWGPGTMVTVSS
VL: DIVMTQSPSSLAVSAGETVTINCKSSQSLLYSGNQKNYLAWYQQKPGQSPKLLIYWASTRQSGVPDRFIGSGSGTDFTLTISSVQAEDLAIYYCQQYYDTPDTFGAGTKLELKR
For B1, the koff is 0.00015 s⁻¹ in test [1] and 0.017 s⁻¹ in test [3]. Also, the figures for the dissociation constant Kd in test [2] and in test [3] were 210 nM and 130 nM, respectively.

For the origin of these results see patent publication US20240317853A1 (UNIVERSITY OF TOKYO, published 2024).
